# Ab-14 light chain CDR variants: yeast mating affinities

The measurements come from Li et al. 2023 (doi:10.1038/s41467-023-39022-2) through the FLAb antibody collection.

Binding partner: SARS-CoV-2 spike HR2 peptide, sequence PDVDLGDISGINAS.

Each scFv is VH, a (GGGGS)3 linker, VL, as in the parent Ab-14, and differs from it in the CDRs of the light chain only.
VH: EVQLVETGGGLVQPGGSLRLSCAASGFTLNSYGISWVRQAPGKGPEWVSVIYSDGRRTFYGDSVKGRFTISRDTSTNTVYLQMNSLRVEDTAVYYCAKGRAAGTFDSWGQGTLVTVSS
VL: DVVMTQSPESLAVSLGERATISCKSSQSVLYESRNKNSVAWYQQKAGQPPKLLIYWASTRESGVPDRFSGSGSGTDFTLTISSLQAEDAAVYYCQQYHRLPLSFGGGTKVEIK

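This is the validation round: designs drawn from the data on random variants, tested in the same kind of assay. Group labels follow the data file (En: ensemble of fine-tuned language models; GP: Gaussian process model; HC: hill climbing; Gen: genetic algorithm; Gibbs: Gibbs sampling; a sequence that several methods proposed may carry one label only). AlphaSeq pools MATa yeast showing the antibodies with MATalpha yeast showing the peptide. After mating in shaken culture at 30 °C for 16 h, diploids were selected and their barcode pairs sequenced. Read counts were normalised to the haploid input and turned into Kd by a linear fit to BCL2-family pairs of known affinity, for each replicate. There are six technical replicates.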

Each variant is given by its three light chain CDRs, as the data file delimits them; those of the parent are KSSQSVLYESRNKNSVA, WASTRES, QQYHRLPLS. This list holds designs with more than six substitutions. Each Kd is an estimate from the mating assay, the geometric mean of the replicates in which the pair was seen; lower is stronger. "nd" means that the variant was in the library but no mating with the target was seen in any replicate; the authors take this as a sign of poor binding, and no number exists.

For MMSQVTGTGQRHRNNVA / QTSTREP / QQYDHLPLI [En_Gen], the assay gave 15 nM (6 of 6 replicates; controls 2 of 18).
For HMSAITLGGMRQRNSVA / QMTTREN / QQYDHLPLS [En_Gen], the assay gave 2.1 nM (6 of 6 replicates; controls 0 of 18).
For IISQSVLGGYHNKNSVA / QTSERGS / QQYDRLPLS [En_HC], the assay gave 3.7 nM (6 of 6 replicates; controls 4 of 18).
For MISQLYNMGTFAINSVA / QASIRNA / QQYDRLPLI [En_Gen], the assay gave 17 nM (6 of 6 replicates; controls 1 of 18).
For SLIPFEQQIMKDLNNIA / NTQVRAS / QQYMRLPFM [En_Gibbs], the assay gave 1.9 nM (6 of 6 replicates; controls 0 of 18).
For KIQHLHYFESEGEWSVA / DANTSVL / QDYFRLPLS [En_Gibbs], the assay gave 130 nM (3 of 6 replicates; controls 2 of 18).
For KLEFSVDYESRNKNAVA / QASTREK / QQYHRLPLS [GP_Gibbs], the assay gave 3.4 nM (6 of 6 replicates; controls 1 of 18).
For GIHSQMVGTSAVKENVA / NEAERLE / QQYQRLPLT [En_Gibbs], the assay gave 26 nM (4 of 6 replicates; controls 0 of 18).
For KIGMTLNTLMHQKNNVA / DLVTREQ / QQYHRLPLS [En_Gen], the assay gave 3.5 nM (6 of 6 replicates; controls 1 of 18).
For TLGAATLEESRNKNSVA / EMSMREN / QSYNRLPLS [En_HC], the assay gave 200 nM (2 of 6 replicates; controls 0 of 18).
For KIAATSLYESGAVNSVA / QNSTRES / QQYHRLPLS [En_HC], the assay gave 96 nM (6 of 6 replicates; controls 1 of 18).
For KLSISIYGEGSEVQSVA / GAEELRQ / QHYNRLPLS [En_Gibbs], the assay gave nd (0 of 6 replicates; controls 0 of 18).
For MVSQLMLWGLHAKNSIA / EAQMRLN / QQYDRLPLI [En_Gen], the assay gave 190 nM (2 of 6 replicates; controls 1 of 18).
For MISQIYNVGQFAINSVA / QASTRNA / QQYDRLPLI [En_Gen], the assay gave 36 nM (6 of 6 replicates; controls 3 of 18).
For MITAAMNAYNGSRSSVA / DKAISVN / QQYHRLPLS [En_Gibbs], the assay gave 330 nM (4 of 6 replicates; controls 1 of 18).
For KLQQMELYMSRNKNSVA / DASQRES / QQYHRLPLS [GP_Gibbs], the assay gave 430 pM (6 of 6 replicates; controls 3 of 18).
For KITATMRFEQKASNNIA / EVTTRSK / QQYVRLPLA [En_Gen], the assay gave 1.1 nM (6 of 6 replicates; controls 0 of 18).
For NVGQLMDSGTRNRNNVA / HQSTRED / QHYHRLPLS [En_HC], the assay gave 950 pM (3 of 6 replicates; controls 0 of 18).
For ALTNEFESVNHHKNNIA / HTSQRCM / QQYATLPLS [En_Gibbs], the assay gave 3.3 nM (6 of 6 replicates; controls 1 of 18).
For QVVDEQWAEGMNIQSIA / EGEVRKD / QQYNRLPLS [En_Gibbs], the assay gave 250 nM (5 of 6 replicates; controls 0 of 18).
For KVSDMMAFLSRNRNSIA / DNSTRGS / QQYHRLPLS [En_HC], the assay gave 590 pM (6 of 6 replicates; controls 0 of 18).
For SISGFMKSLAAHYNSVA / DMTNRED / QQYDRLPLS [En_Gen], the assay gave 14 nM (6 of 6 replicates; controls 2 of 18).
For TIGQTLMYGKRNKNNVA / EVSERLN / QQYDRLPLI [En_Gen], the assay gave 92 nM (6 of 6 replicates; controls 0 of 18).
For KAPQSMWYESRNQNSVA / SASTRSQ / QQYHRLPLQ [GP_Gibbs], the assay gave 1.9 nM (6 of 6 replicates; controls 1 of 18).
For KLVNFMNRGTHHTSNIA / DAALRED / QQYYRLPLA [En_Gen], the assay gave 2.2 nM (6 of 6 replicates; controls 0 of 18).
For KVSQEMLYESRMANSVA / NASQREE / QQYHRLPLS [GP_Gibbs], the assay gave 11 nM (6 of 6 replicates; controls 0 of 18).
For KVSQGMWYESRNKNSVA / DASMRES / QQYHRLPLQ [GP_Gibbs], the assay gave 570 pM (6 of 6 replicates; controls 0 of 18).
For HVEHASLESNATMNSVA / NEACLAI / QQYHRLPLA [En_Gibbs], the assay gave 11 nM (6 of 6 replicates; controls 0 of 18).
For KIGMTLNMLEHKQNNVA / DLVERVN / QQYFRLPLS [En_Gen], the assay gave 1.6 nM (6 of 6 replicates; controls 1 of 18).
For KLSVSWLYESIEKNSVA / ERSTREE / QDYNRLPLS [En_HC], the assay gave 7.5 nM (6 of 6 replicates; controls 0 of 18).
For MVYESMDQAMRTHNNIA / DNQTRES / QQYDRLPLS [En_Gen], the assay gave 680 nM (4 of 6 replicates; controls 2 of 18).
For SIGGAMKSSYAHRNSVA / DMTNRED / QQYDRLPLS [En_Gen], the assay gave 1.0 nM (6 of 6 replicates; controls 0 of 18).
For KFSQMSNQFSVSMNAVA / EMSTRPE / QQYNRLPLS [En_Gen], the assay gave 1.2 nM (6 of 6 replicates; controls 0 of 18).
For KLSYSWPGESRNKNSVA / DAGTRES / QQYHRLPLS [GP_Gibbs], the assay gave 3.0 nM (6 of 6 replicates; controls 0 of 18).
For ILYESVGTLSRNKNSVA / DNSTRES / QQYDRLPLS [En_HC], the assay gave 530 nM (6 of 6 replicates; controls 1 of 18).
For RVQIWSGHSDMHWKSIA / SASLRAS / QQYARLPLE [En_Gibbs], the assay gave 22 nM (6 of 6 replicates; controls 3 of 18).
For TLGQSTLMESRNKDNVA / QMSTREK / QQYHRLPLS [En_HC], the assay gave 360 pM (6 of 6 replicates; controls 0 of 18).
For SLMQVGGYESNVKNSIA / DLRTRES / QQYHRLPLS [En_HC], the assay gave 5.0 nM (6 of 6 replicates; controls 0 of 18).
For KVSNQADYEDRMKNSVA / SASTRES / QQYHRLPLS [GP_Gibbs], the assay gave 2.2 nM (6 of 6 replicates; controls 1 of 18).
For KSDQEQLYENRMINSVA / DASLRES / QQYHRLPLS [GP_Gibbs], the assay gave 8.7 nM (6 of 6 replicates; controls 0 of 18).
For KLSMSMVLESFHKNSVA / ENSTREE / QHYHRLPLS [En_HC], the assay gave 130 nM (6 of 6 replicates; controls 4 of 18).
For MMSQVTGQGQRHRNNVA / QTSTREE / QQYDRLPLV [En_Gen], the assay gave 4.5 nM (6 of 6 replicates; controls 3 of 18).
For KLQQVTGYESYVRNSVA / QMSTRAE / QDYHRLPLS [En_HC], the assay gave 3.1 nM (6 of 6 replicates; controls 1 of 18).
For SLFFNDDQLQEQSNNIA / HASLRSV / QQYMHLPLV [En_Gibbs], the assay gave 3.8 nM (6 of 6 replicates; controls 0 of 18).
For KLSQYVGGESRNKSSLA / DNSTREA / QQYERLPLS [En_HC], the assay gave 72 nM (6 of 6 replicates; controls 3 of 18).
For KFDLLMNDEKNANKNVA / GNVHHMA / QQYERLPLS [En_Gibbs], the assay gave 7.6 nM (6 of 6 replicates; controls 0 of 18).
For TISQLHNMGTFAINSVA / QASIRNA / QQYDRLPLA [En_Gen], the assay gave 4.6 nM (4 of 6 replicates; controls 0 of 18).
For KISQMIRVGSTHSNSIA / EEATRAK / QQYHRLPLA [En_Gen], the assay gave 65 nM (4 of 6 replicates; controls 1 of 18).
For MLTWGDDHTTGHQNAIA / HAHERNT / QQYALLPLT [En_Gibbs], the assay gave 27 nM (6 of 6 replicates; controls 1 of 18).

For reference, 6 entries of the list once more:

Variant SIGGAMKSSYAHRNSVA / DMTNRED / QQYDRLPLS [En_Gen] showed 1.0 nM (6 of 6 replicates; controls 0 of 18).
Variant TIGQTLMYGKRNKNNVA / EVSERLN / QQYDRLPLI [En_Gen] showed 92 nM (6 of 6 replicates; controls 0 of 18).
Variant KLSISIYGEGSEVQSVA / GAEELRQ / QHYNRLPLS [En_Gibbs] showed nd (0 of 6 replicates; controls 0 of 18).
Variant MLTWGDDHTTGHQNAIA / HAHERNT / QQYALLPLT [En_Gibbs] showed 27 nM (6 of 6 replicates; controls 1 of 18).
Variant HVEHASLESNATMNSVA / NEACLAI / QQYHRLPLA [En_Gibbs] showed 11 nM (6 of 6 replicates; controls 0 of 18).
Variant MVSQLMLWGLHAKNSIA / EAQMRLN / QQYDRLPLI [En_Gen] showed 190 nM (2 of 6 replicates; controls 1 of 18).

The authors' rule: three or more of the six replicates give a measured affinity, fewer mean a poor binder. Values of this round are not directly comparable with the first-round values of the same sequences. Background: pairings of all light chain designs with three empty control strains gave a value in 4% of cases (median 430 nM, 5th percentile 38 nM). Values in that range, when seen in few replicates, are hard to tell from nonspecific mating. For each scFv, signals with the empty controls are counted beside the result.